The inhibition is the change of the read-out against control, counted positive when it falls.

This passage reports inhibition results from PubChem BioAssay AID652162 (Broad Institute, 2013).

The entries are a selection whose mix differs from that of the whole data set. Some of these compounds have results that are not shown, active ones among them. Activity calls are given as the source filed them. Cut-off read from the data, not from the text of the source: active = inhibition above about 10%; inactive = the rest.

This experiment concerns the target Toxin B (Clostridioides difficile) (UniProt P18177). As to the kind of experiment: TcdB glycohydrolase inhibitors, primary screen, biochemical, single point, plate reader (AID 652162). As to conditions: TcdB glycohydrolase enzymatic assay, at 9.99 µM, stronger effect = higher value.
Turning to `CCN(CC)CC(C)C(C)OC(=O)C(O)(c1ccccc1)c1ccccc1` (configuration not stated), the inhibition was inactive: 0.441%.

For the compound `COc1cc(SC)ccc1C(=O)NCC1(N(C)C)CCCCC1`, the inhibition was inactive: 0.473%.

Regarding `Cc1ccc(C(=O)NCC2(N3CCCCC3)CCCCC2)cc1`, the inhibition was inactive: 0.978%.

For the compound `O=C(NCC1(N2CCCCC2)CCCCC1)c1cc([N+](=O)[O-])ccc1Cl`, the inhibition is inactive: -0.053%.

On to `CN1[C@@H]2CC[C@H]1CC(OC(=O)C(O)(c1ccccc1)c1ccccc1)C2` (some centres not stated), for which the inhibition is inactive: 1.28%.

`C=CCN1CCN(CCOC(=O)C(O)(c2ccccc2)c2ccccc2)CC1`: the inhibition was inactive: -1.23%.

With `O=C(NCC1(N2CCCCC2)CCCCC1)c1cc(F)c(F)cc1Cl`, the inhibition was inactive: 0.418%.

As to `COc1ccc(C(=O)NCC2(N(C)C)CCCCC2)cc1`, the inhibition was inactive: 1.55%.

For `Cc1cc(C(=O)NCC2(N3CCCCC3)CCCCC2)ccc1[N+](=O)[O-]`, the inhibition is inactive: -0.716%.

Regarding `O=C(NCC1(N2CCCCC2)CCCCC1)c1cccc(Br)c1`, the inhibition was inactive: 1.45%.

Consider `Cc1ccccc1C(=O)NCC1(N2CCCCC2)CCCCC1`, for which the inhibition is inactive: 0.695%.

In the case of `CN(C)c1ccc(C(=O)NCC2(N(C)C)CCCCC2)cc1`, the inhibition is inactive: 0.985%.

`CN(C)C1CCCC1OC(=O)C(O)(c1ccccc1)c1ccccc1` (configuration not stated): the inhibition is inactive: 0.725%.

For the compound `COc1cccc(C(=O)NCC2(N3CCCCC3)CCCCC2)c1`, the inhibition is inactive: 0.734%.

With `COc1ccc(Cl)cc1C(=O)NCC1(N(C)C)CCCCC1`, the inhibition was inactive: -4.72%.

On to `O=C(NCC1(N2CCCCC2)CCCCC1)c1cccc(Cl)c1`, for which the inhibition is inactive: -0.178%.

On to `CN(C)C1(CNC(=O)c2ccc(Br)cc2)CCCCC1`, for which the inhibition is inactive: 0.316%.

On to `COc1cc(C(=O)NCC2(N(C)C)CCCCC2)c([N+](=O)[O-])cc1OC`, for which the inhibition was inactive: 1.3%.

Take `C=C(C)C#CC(O)(C(=O)OC1CCN(C)CC1)c1ccccc1` (configuration not stated): the inhibition was inactive: 3.55%.

Regarding `COc1ccc(Br)c(C(=O)NCC2(N3CCCCC3)CCCCC2)c1`, the inhibition was inactive: 0.191%.

Turning to `CC(C)Oc1ccc(C(=O)NCC2(N(C)C)CCCCC2)cc1`, the inhibition is inactive: 0.7%.

For `O=C(OCCN1CCCC1)C(O)(c1ccccc1)c1ccccc1`, the inhibition is inactive: 0.423%.
